Assay results from US7696246B2 (Ligand Pharmaceuticals Incorporated, priority 1999, dated 2010).

The chains behind the UniProt entries cited, without tags or fusion partners. Where a name states a change or a piece, a line headed by the entry shows the natural chain unless it says otherwise.
UniProt P10275: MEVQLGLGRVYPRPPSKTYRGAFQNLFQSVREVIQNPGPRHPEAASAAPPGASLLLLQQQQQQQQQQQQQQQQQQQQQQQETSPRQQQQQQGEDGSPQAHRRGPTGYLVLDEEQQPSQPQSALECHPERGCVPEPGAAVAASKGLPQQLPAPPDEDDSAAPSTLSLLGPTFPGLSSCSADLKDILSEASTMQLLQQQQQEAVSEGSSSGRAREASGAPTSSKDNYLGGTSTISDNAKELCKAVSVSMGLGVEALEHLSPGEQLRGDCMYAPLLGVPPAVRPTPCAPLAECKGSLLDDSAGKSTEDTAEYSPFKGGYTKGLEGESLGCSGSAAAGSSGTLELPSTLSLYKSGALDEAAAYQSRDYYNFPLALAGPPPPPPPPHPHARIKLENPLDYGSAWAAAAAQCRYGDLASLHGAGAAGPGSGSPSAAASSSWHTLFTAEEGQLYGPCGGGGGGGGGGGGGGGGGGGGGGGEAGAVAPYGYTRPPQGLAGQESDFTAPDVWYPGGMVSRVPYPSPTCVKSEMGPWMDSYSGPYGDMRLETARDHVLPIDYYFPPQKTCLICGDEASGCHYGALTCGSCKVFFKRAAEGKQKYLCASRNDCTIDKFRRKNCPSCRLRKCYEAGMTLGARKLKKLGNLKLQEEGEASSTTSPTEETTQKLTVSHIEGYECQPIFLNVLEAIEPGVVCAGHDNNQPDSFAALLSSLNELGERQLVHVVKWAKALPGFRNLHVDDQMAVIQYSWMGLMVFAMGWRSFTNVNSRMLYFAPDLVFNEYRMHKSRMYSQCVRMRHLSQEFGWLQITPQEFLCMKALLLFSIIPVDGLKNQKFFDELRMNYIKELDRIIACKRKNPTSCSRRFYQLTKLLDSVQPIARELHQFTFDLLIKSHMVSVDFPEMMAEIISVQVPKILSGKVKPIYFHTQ

Experiments:
human AR [1] = target: T1, human AR (Homo sapiens, UniProt P10275); experiment: Co-transfection assay, AR antagonist activity (CV-1 cells, in presence of DHT)
human AR [2] = target: T1, human AR; experiment: AR whole cell competitive binding assay (COS-1 cells, 3H-DHT)
human AR [3] = target: T1, human AR; experiment: Co-transfection assay, AR agonist activity (CV-1 cells, MTV-LUC reporter)

CCCNc1ccc2[nH]c(=O)cc(C(F)(F)F)c2c1 [Compound 204, 6-Propylamino-4-trifluoromethyl-2(1H)-quinolinone]
IC50 (human AR [1]): 27 nM

Cc1cc(=O)[nH]c2ccc(N(CC(C)C)CC(F)(F)F)cc12 [Compound 381, 6-(N-Isobutyl-N-2,2,2-trifluoroethyl)amino-4-methyl-2(1H)-quinolinone]
IC50 (human AR [1]): > 10000 nM | Ki (human AR [2]): 7.8 nM | EC50 (human AR [3]): 1.8 nM

Cc1cc(=O)[nH]c2ccc(N(CC(F)(F)F)CC(F)(F)F)cc12 [Compound 377, 6-(bis-2,2,2-Trifluoroethyl)amino-4-methyl-2(1H)-quinolinone]
IC50 (human AR [1]): > 10000 nM | EC50 (human AR [3]): 0.45 nM

CCC(C)c1cc2c(C(F)(F)F)cc(=O)[nH]c2cc1N (stereo not drawn) [Compound 581, 7-Amino-6-sec-butyl-4-trifluoromethyl-2(1H)-quinolinone]
IC50 (human AR [1]): 5000 nM | Ki (human AR [2]): 24 nM

CC(C)Nc1ccc2c(C(F)(F)F)cc(=O)[nH]c2c1 [Compound 514, 7-Isopropylamino-4-trifluoromethyl-2(1H)-quinolinone]
IC50 (human AR [1]): 55 nM | EC50 (human AR [3]): > 10000 nM

O=c1cc(C(F)(F)F)c2ccc(NCC(F)(F)F)cc2[nH]1 [Compound 523, 7-(N-2,2,2-Trifluoroethyl)amino-4-trifluoromethyl-2(1H)-quinolinone]
IC50 (human AR [1]): 24 nM | Ki (human AR [2]): 16 nM | EC50 (human AR [3]): 1000 nM

CCCCN(CCCC)c1ccc2[nH]c(=O)cc(C(F)(F)F)c2c1 [Compound 220, 6-Dibutylamino-4-trifluoromethyl-2(1H)-quinolinone]
IC50 (human AR [1]): 29 nM | EC50 (human AR [3]; read-out: AR Agonist CV-1 Cells Potency): 1280 nM

O=c1cc(C(F)(F)F)c2ccc(NCC(F)(F)C(F)(F)F)cc2[nH]1 [Compound 520, 7-(2,2,3,3,3-Pentafluoropropyl)amino-4-trifluoromethyl-2(1H)-quinolinone]
EC50 (human AR [3]): > 10000 nM

CCCNc1ccc2c(C(F)(F)F)cc(=O)[nH]c2c1 [Compound 513, 7-Propylamino-4-trifluoromethyl-2(1H)-quinolinone]
IC50 (human AR [1]): 26 nM | EC50 (human AR [3]): > 10000 nM

CCN(c1ccc2[nH]c(=O)cc(C(F)(F)F)c2c1)C(C)C [Compound 239, 6-(N-Ethyl-N-isopropyl)amino-4-trifluoromethyl-2(1H)-quinolinone]
IC50 (human AR [1]): > 10000 nM | EC50 (human AR [3]): 2 nM

C=CC(C)(C)Nc1ccc2c(C(F)(F)F)cc(=O)[nH]c2c1 [Compound 559, 7-(1,1-Dimethylallyl)amino-4-trifluoromethyl-2(1H)-quinolinone]
EC50 (human AR [3]): > 10000 nM

Like-named read-outs stand apart in the source and are kept apart here.
